Test results reported in PubChem BioAssay (NCI).
The list shows a part of the results, in another mix than the full data.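 Percent growth is the endpoint: 0 to 100 indicates growth inhibition (40 means 60% inhibition), 0 means no net growth, and negative values indicate cell death.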 Active and inactive are the calls of the source. Rule for the calls: active = growth percent below 10; inactive = the rest.

Columns and labels:
Experiment in all cases: NCI-60 one-dose screen, 48 h (100 = growth as untreated, 0 = no growth, -100 = all killed)
Settings in all cases: 10 µM
NCI-H23 lung = tested on: NCI-H23 lung
NCI-H226 lung = tested on: NCI-H226 lung
NCI-H322M lung = tested on: NCI-H322M lung
HOP-62 NSCLC = tested on: HOP-62 NSCLC
NCI-H460 lung = tested on: NCI-H460 lung
HOP-92 NSCLC = tested on: HOP-92 NSCLC
NCI-H522 lung = tested on: NCI-H522 lung
A549/ATCC NSCLC = tested on: A549/ATCC NSCLC
786-0 renal = tested on: 786-0 renal
COLO 205 colon = tested on: COLO 205 colon
DU-145 prostate = tested on: DU-145 prostate
K-562 leukemia = tested on: K-562 leukemia
MDA-MB-231 breast = tested on: MDA-MB-231 breast
RXF 393 renal = tested on: RXF 393 renal
SF-268 CNS = tested on: SF-268 CNS
SF-295 CNS = tested on: SF-295 CNS
SF-539 CNS = tested on: SF-539 CNS
UACC-257 melanoma = tested on: UACC-257 melanoma
M14 melanoma = tested on: M14 melanoma
MALME-3M melanoma = tested on: MALME-3M melanoma

Measured: growth

CCOP(=O)(CC)OCC
inactive: NCI-H23 lung 103% | NCI-H226 lung 98.3% | NCI-H322M lung 113% | HOP-62 NSCLC 101% | NCI-H460 lung 101% | HOP-92 NSCLC 93.3% | NCI-H522 lung 114% | A549/ATCC NSCLC 103% | 786-0 renal 92.1% | COLO 205 colon 111% | DU-145 prostate 120% | K-562 leukemia 107% | MDA-MB-231 breast 101% | RXF 393 renal 99.6% | SF-268 CNS 111% | SF-295 CNS 96.6% | SF-539 CNS 93.5% | UACC-257 melanoma 95.1% | M14 melanoma 102%

O=[N+]([O-])c1cc([N+](=O)[O-])c(Oc2ccccc2)c([N+](=O)[O-])c1
inactive: NCI-H23 lung 100% | NCI-H226 lung 94.4% | NCI-H322M lung 98% | HOP-62 NSCLC 102% | NCI-H460 lung 111% | NCI-H522 lung 95% | A549/ATCC NSCLC 103% | 786-0 renal 106% | COLO 205 colon 106% | DU-145 prostate 103% | K-562 leukemia 92.2% | MALME-3M melanoma 109% | MDA-MB-231 breast 106% | RXF 393 renal 116% | SF-268 CNS 103% | SF-295 CNS 91.2% | SF-539 CNS 122% | UACC-257 melanoma 99.5% | M14 melanoma 105%

n1nc(-c2nn[nH]n2)n[nH]1
inactive: NCI-H23 lung 105% | NCI-H226 lung 97.3% | NCI-H322M lung 107% | HOP-62 NSCLC 98.9% | NCI-H460 lung 118% | NCI-H522 lung 83.8% | A549/ATCC NSCLC 99.2% | 786-0 renal 100% | COLO 205 colon 125% | DU-145 prostate 135% | K-562 leukemia 108% | MALME-3M melanoma 112% | MDA-MB-231 breast 98% | RXF 393 renal 90.8% | SF-268 CNS 123% | SF-295 CNS 106% | SF-539 CNS 124% | UACC-257 melanoma 101% | M14 melanoma 105%

O=C1C(O)=C([N+](=O)[O-])C(=O)C(O)=C1[N+](=O)[O-]
inactive: NCI-H23 lung 104% | NCI-H226 lung 97.4% | NCI-H322M lung 97.6% | HOP-62 NSCLC 104% | NCI-H460 lung 107% | HOP-92 NSCLC 100% | A549/ATCC NSCLC 100% | 786-0 renal 109% | COLO 205 colon 94.1% | DU-145 prostate 108% | K-562 leukemia 108% | MALME-3M melanoma 98% | MDA-MB-231 breast 110% | RXF 393 renal 115% | SF-268 CNS 99.8% | SF-295 CNS 112% | SF-539 CNS 98.5% | UACC-257 melanoma 109% | M14 melanoma 108%

CNc1ccccc1.O=[N+]([O-])c1cc([N+](=O)[O-])c(O)c([N+](=O)[O-])c1
inactive: NCI-H23 lung 106% | NCI-H226 lung 97% | NCI-H322M lung 106% | HOP-62 NSCLC 106% | NCI-H460 lung 101% | HOP-92 NSCLC 105% | NCI-H522 lung 99.6% | A549/ATCC NSCLC 96% | 786-0 renal 108% | COLO 205 colon 116% | DU-145 prostate 119% | K-562 leukemia 104% | MALME-3M melanoma 116% | MDA-MB-231 breast 96.8% | RXF 393 renal 109% | SF-268 CNS 120% | SF-539 CNS 106% | UACC-257 melanoma 86.7% | M14 melanoma 106%

O=[N+]([O-])OCC(O[N+](=O)[O-])C(CO[N+](=O)[O-])O[N+](=O)[O-] (configuration not stated)
inactive: NCI-H23 lung 99.7% | NCI-H226 lung 112% | NCI-H322M lung 117% | HOP-62 NSCLC 113% | HOP-92 NSCLC 114% | NCI-H522 lung 102% | A549/ATCC NSCLC 117% | 786-0 renal 113% | COLO 205 colon 122% | DU-145 prostate 114% | K-562 leukemia 101% | MALME-3M melanoma 114% | MDA-MB-231 breast 125% | RXF 393 renal 118% | SF-268 CNS 105% | SF-295 CNS 121% | SF-539 CNS 103% | UACC-257 melanoma 131% | M14 melanoma 108%

O=[N+]([O-])c1cccc([N+](=O)[O-])c1O
inactive: NCI-H23 lung 105% | NCI-H226 lung 109% | NCI-H322M lung 115% | HOP-62 NSCLC 100% | NCI-H460 lung 110% | A549/ATCC NSCLC 99.6% | 786-0 renal 107% | COLO 205 colon 111% | DU-145 prostate 106% | K-562 leukemia 95% | MALME-3M melanoma 125% | MDA-MB-231 breast 103% | RXF 393 renal 113% | SF-268 CNS 102% | SF-295 CNS 119% | SF-539 CNS 106% | UACC-257 melanoma 107% | M14 melanoma 102%
